# Experimental water solubility values from OPERA 2.9

From the experimental data distributed with OPERA 2.9.

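The numbers are reported measurements, compiled and curated for the OPERA QSAR suite. One number stands for a compound and property, with no spread given. Conditions of the individual experiments are not part of the data. The measured form (salt, isomer or mixture) is not always the one drawn. Unmarked limits or estimates from the upstream databases cannot be ruled out.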

Water solubility is log10 of mol/L, nominally at 25 °C; higher is more soluble.

CC1=CC(C)=Nc2ccccc2N1 [2,4-Dimethyl-1H-1,5-benzodiazepine] is reported with log S -1.367 (log10 mol/L).
CCCCCCCCCCCCCCCC(=O)OC[C@@H](NC(=O)C(Cl)Cl)[C@H](O)c1ccc([N+](=O)[O-])cc1 [Chloramphenicol palmitate] is reported with log S -2.728 (log10 mol/L).
O=C1Nc2nc(=O)nc3[nH]c(=O)nc(n23)N1 [1,3,4,6,7,9,9b-Heptaazaphenalene-2,5,8(1H,3H,6H)-trione] is reported with log S -1.964 (log10 mol/L).
COC[C@H]1O[C@@H](OC2OC[C@@H]3O[C@]4(O[C@H]3[C@H]2OC(=O)C(C)C)O[C@H](C)[C@@](O)(C(C)=O)[C@@H]2OCO[C@H]24)[C@@H](OC)[C@@H](O)[C@@H]1O[C@@H]1O[C@H](C)[C@H](OC)[C@H](O[C@H]2C[C@@]3(C)OC4(C[C@@H](O)[C@H](O[C@H]5C[C@@H](O)[C@H](OC(=O)c6c(C)c(Cl)c(O)c(Cl)c6OC)[C@@H](C)O5)[C@@H](C)O4)O[C@@H]3[C@@H](C)O2)[C@H]1O (stereo partly drawn) [Avilamycin] is reported with log S -3.15 (log10 mol/L).
CCCCCCCCCNC(=O)C(O)C(O)C(O)C(O)CO (stereo not given) [2,3,4,5,6-pentahydroxy-N-nonylhexanamide] is reported with log S -3.507 (log10 mol/L).
Clc1cccc(Oc2ccc(Cl)c(Cl)c2Cl)c1 is reported with log S -7.09 (log10 mol/L).
CCNC(N)=S [Ethylthiourea] is reported with log S -0.64 (log10 mol/L).
Nc1ccc(S(=O)(=O)Nc2cnc3c(n2)CCCC3)cc1 is reported with log S -3.651 (log10 mol/L).
CO[C@H]1C[C@H](O[C@@H]2C(C)=CC[C@@H]3C[C@@H](C[C@]4(CC[C@H](C)[C@@H](C5CCCCC5)O4)O3)OC(=O)[C@@H]3C=C(C)/C(=N/O)[C@H]4OCC(=CC=C[C@@H]2C)[C@]43O)O[C@@H](C)[C@@H]1O [Selamectin] is reported with log S -6.25 (log10 mol/L).
C[C@H](CCC(=O)O)[C@H]1CC[C@H]2[C@@H]3C[C@H](O)[C@@H]4C[C@H](O)CC[C@]4(C)[C@H]3CC[C@]12C is reported with log S -3.82 (log10 mol/L).
CC[C@H](NC(C)C)[C@H](O)c1ccc(O)c2[nH]c(=O)ccc12 [Procaterol] is reported with log S -2.946 (log10 mol/L).
Cc1ccncc1C [3,4-Dimethylpyridine] is reported with log S 0.36 (log10 mol/L).
CCCCCCCCCCCCCCCCCCNC(=O)c1cccnc1 [N-Octadecyl-3-pyridinecarboxamide] is reported with log S -3.187 (log10 mol/L).
CCCCCCCCCCCCN1CC(C(=O)OC)CC1=O (stereo not given) is reported with log S -4.376 (log10 mol/L).
Nc1nc(=O)c2nccnc2[nH]1 [2-Amino-4-hydroxypteridine] is reported with log S -2.962 (log10 mol/L).
CC(C)CCOC(=O)CC(C)C [3-Methylbutyl 3-methylbutanoate] is reported with log S -3.554 (log10 mol/L).
CCn1c2ccccc2c2ccccc21 [9-Ethylcarbazole] is reported with log S -6.813 (log10 mol/L).
CC[C@@H](N)C(=O)N[C@H](CC)C(=O)O [Butyric acid, 2-(D-2-aminobutyramido)-] is reported with log S -1.297 (log10 mol/L).
C=C1CC[C@H](O)C/C1=C/C=C1\CCC[C@]2(C)[C@@H]([C@H](C)/C=C/[C@H](C)C(C)C)CC[C@@H]12 [Ergocalciferol] is reported with log S -3.9 (log10 mol/L).
FC(F)(Cl)c1ccc(C(F)(F)Cl)cc1 [1,4-Bis(chlorodifluoromethyl)benzene] is reported with log S -5.56 (log10 mol/L).
C=C[C@@H]1C[C@]1(NC(=O)[C@@H]1C[C@@H](Oc2ncc(OC)c3ccc(Cl)cc23)CN1C(=O)[C@@H](NC(=O)OC(C)(C)C)C(C)(C)C)C(=O)NS(=O)(=O)C1CC1 [Asunaprevir] is reported with log S -4.175 (log10 mol/L).
CC(C)(C)NC(=O)[C@H]1CC[C@H]2[C@@H]3CC[C@H]4NC(=O)C=C[C@]4(C)[C@H]3CC[C@]12C is reported with log S -5.275 (log10 mol/L).
CCC(C)(NC=O)C(=O)O (racemic) is reported with log S -0.582 (log10 mol/L).
CC(=O)O[C@H]1C[C@@]2(C)[C@@H](C[C@@H](O)[C@H]3[C@@]4(C)CC[C@@H](O)[C@@H](C)[C@@H]4CC[C@@]32C)/C1=C(\CCC=C(C)C)C(=O)O [Fusidic acid] is reported with log S -4.901 (log10 mol/L).
CC(C)COC(=O)C(C)Oc1ccc(Oc2ccc(Cl)cc2)cc1 (stereo not given) [Clofop-isobutyl] is reported with log S -3.287 (log10 mol/L).
CCC(=O)Nc1c(I)c(NC(=O)CC)c(I)c(C(=O)O)c1I [Diprotrizoic acid] is reported with log S -2.81 (log10 mol/L).
Clc1ccc(Cl)c(Oc2cc(Cl)c(Cl)cc2Cl)c1 [2,2',4,5,5'-Pentachlorodiphenyl ether] is reported with log S -7.56 (log10 mol/L).
Cl.Cl.NCCCNc1ccc2c3c(c4c(c(O)c13)C(=O)C=CC4=O)NN2CCNCCO [Piroxantrone hydrochloride] is reported with log S -2.834 (log10 mol/L).
NC(=O)c1ccccc1C(F)(F)F [2-Trifluoromethylbenzamide] is reported with log S -1.16 (log10 mol/L).
CC(=O)C(/N=N/c1ccc(Cl)cc1[N+](=O)[O-])C(=O)Nc1ccc2[nH]c(=O)[nH]c2c1 (stereo partly drawn) [C.I. Pigment Orange 36] is reported with log S -7.474 (log10 mol/L).
C/C=C/C=C/CCCCCCCO [Codlelure] is reported with log S -3.851 (log10 mol/L).
Nc1cnc2c(N)nc(N)nc2n1 [2,4,7-Pteridinetriamine] is reported with log S -2.902 (log10 mol/L).
N.N.O=C([O-])CC(C(=O)[O-])C(=O)[O-].[H+].[Pt+2] is reported with log S -1.59 (log10 mol/L).
Nc1ccc2cc(S(=O)(=O)O)ccc2c1 [6-Aminonaphthalene-2-sulfonic acid] is reported with log S -3.27 (log10 mol/L).
CC(=O)c1ccc(N)cc1 [4-Aminoacetophenone] is reported with log S -1.61 (log10 mol/L).
O=C(O)C(F)(F)C(F)(F)C(F)(F)C(F)(F)C(F)(F)C(F)(F)C(F)(F)C(F)(F)C(F)(F)C(F)(F)C(F)(F)C(F)(F)C(F)(F)F [Perfluorotetradecanoic acid] is reported with log S -6.382 (log10 mol/L).
O=C1NC(=S)S/C1=C\c1ccc(O)c(O)c1 [5-(3,4-Dihydroxybenzylidene)-2-thioxo-1,3-thiazolidin-4-one] is reported with log S -3.343 (log10 mol/L).
O=C(c1ccc(O)cc1)c1ccc(O)cc1 [4,4'-Dihydoxybenzophenone] is reported with log S -2.812 (log10 mol/L).
CCCC(=O)Nc1ccc(OCC(O)CNC(C)C)c(C(C)=O)c1 (stereo not given) [Acebutolol] is reported with log S -2.2 (log10 mol/L).
O=C(O)c1ccccc1I [Benzoic acid, 2-iodo-] is reported with log S -2.73 (log10 mol/L).
N#CCC(=O)N/N=C/C=C/c1ccc([N+](=O)[O-])o1 is reported with log S -3.749 (log10 mol/L).
Cn1cc(C(O)=Nc2ccccc2C2CC2C2CC2)c(C(F)F)n1 (stereo not given) [Sedaxane] is reported with log S -4.37 (log10 mol/L).